Conditions: rat, in vivo

Ratio of VD supernatant/pellet: 51.0
Substance: ^14C-Butanol

Reference: US20050123477A1, “Benzothiazole derivatives for in vivo imaging of amloid plaques” (priority 2002, published 2005)
